{
  "sequences": {"note": "The chains behind the UniProt entries cited, without tags or fusion partners.", "UniProt P14600, whole entry": "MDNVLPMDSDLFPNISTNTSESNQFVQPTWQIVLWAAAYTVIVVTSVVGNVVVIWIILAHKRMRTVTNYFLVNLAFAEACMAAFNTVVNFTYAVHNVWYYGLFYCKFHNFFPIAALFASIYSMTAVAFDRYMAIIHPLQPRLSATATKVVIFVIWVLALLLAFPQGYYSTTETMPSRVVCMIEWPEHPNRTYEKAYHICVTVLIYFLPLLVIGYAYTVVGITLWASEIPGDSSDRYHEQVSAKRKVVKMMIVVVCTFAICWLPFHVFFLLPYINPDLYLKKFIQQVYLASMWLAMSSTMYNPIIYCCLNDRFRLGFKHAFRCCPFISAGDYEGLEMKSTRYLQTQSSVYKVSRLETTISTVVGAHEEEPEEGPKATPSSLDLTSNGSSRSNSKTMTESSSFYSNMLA"},
  "source": "paper PMC33344",
  "about": "(BMC Chemical Biology, 2001)",
  "key": {"rat SP receptor (rSPR)": {"molecular_target": "rat SP receptor (rSPR) (Rattus norvegicus, UniProt P14600)", "experiment": "Radioligand competition binding with [125I] SP on CHO cells expressing the rSPR", "conditions": "50 pM [125I] SP, competitor up to 1 μM"}, "[1]": {"molecular_target": "T1, rSPR expressed in CHO cells (Rattus norvegicus, UniProt P14600)", "experiment": "Epifluorescence microscopy, direct labeling of rSPR-transfected CHO cells", "type": "cell-based", "conditions": "100 nM, 2 hrs at 4°C, rinsed and fixed"}, "[2]": {"molecular_target": "T1, rSPR expressed in CHO cells", "experiment": "Ca++ elevation in rSPR-expressing CHO cells", "type": "cell-based", "conditions": "concentrations up to 10 nM, % of ionomycin response"}},
  "note": "“Also recorded” adds a separate entry of the source.",
  "data": [
    {"substance": "Alexa 488-SP: Substance P with Alexa 488 covalently linked at Lys3; Molecular Probes product S-13426", "values": [
      {"measurement": "competition with [125I] SP for binding at the rSPR (in words)", "setting": "rat SP receptor (rSPR)", "value": "did not compete; also recorded: unable to displace the radioisotope"},
      {"measurement": "membrane staining of rSPR-expressing CHO cells", "setting": "[1]", "value": "did not stain"},
      {"measurement": "Ca++ response at the rSPR (in words)", "setting": "[2]", "value": "did not elicit specific Ca^++ responses"}
    ]}
  ]
}
